As usually defined, the stoichiometry N is the number of molecules, sites or subunits per partner or assembly.

This is an account of results in paper PMC5640506.

For one assay, the target named is K6 affimer. Briefly: ITC; monomeric affimer 5 μM in cell, diUb 30 μM in syringe; 25°C; PBS (18 mM Na2HPO4, 7 mM NaH2PO4 pH 7.2, 150 mM NaCl).
In a further assay the target is K33 affimer. The assay is described as above.

For the substance “K6-linked diUb (from UniProt P0CG47 1-76)”, in the assay with K6 affimer, the stoichiometry N was found to be 0.46. “K33-linked diUb (from UniProt P0CG47 1-76)” showed a stoichiometry N in the assay with K33 affimer of 0.44.
